Amino acid sequences for entries named in this document (tags omitted).
UniProt P08684, whole entry: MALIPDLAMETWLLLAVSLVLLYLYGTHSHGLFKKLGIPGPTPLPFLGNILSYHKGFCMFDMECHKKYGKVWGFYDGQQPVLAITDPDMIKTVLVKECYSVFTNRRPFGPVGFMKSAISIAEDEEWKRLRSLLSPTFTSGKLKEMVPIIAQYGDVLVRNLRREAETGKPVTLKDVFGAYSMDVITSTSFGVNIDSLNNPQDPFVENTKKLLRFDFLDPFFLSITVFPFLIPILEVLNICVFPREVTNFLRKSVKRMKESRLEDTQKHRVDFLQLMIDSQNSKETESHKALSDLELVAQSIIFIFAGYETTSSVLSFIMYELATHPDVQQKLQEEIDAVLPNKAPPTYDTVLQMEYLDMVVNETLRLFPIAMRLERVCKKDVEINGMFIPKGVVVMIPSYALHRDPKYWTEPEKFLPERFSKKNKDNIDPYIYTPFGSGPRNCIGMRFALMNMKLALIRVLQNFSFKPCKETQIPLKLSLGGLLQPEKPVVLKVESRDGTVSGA

Only a part is listed here, and it is no random draw. Records with an inconclusive call do not appear. Active and inactive are the calls of the source. Unless noted, calls follow the shape of the dose curve; as a rule, active = well fitted curve in the direction sought with a large enough effect; inconclusive = small, poorly fitted or top-dose-only effect, or another doubt; inactive = no such curve, though single readings can be large; an effect the other way counts as inactive or inconclusive.
System: not listed separately
Assay: Cellular Toxicity (caspase-3) Hek293 (AID 664);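 also: cells exposed to compound for 16 h at 37 °C before readout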
Details: HEK293 caspase-3 activation, DMSO = 0%, 100 µM tamoxifen = 100%; at 92.2 µM (top of the series)
Source text: (§1) NIH Chemical Genomics Center [NCGC]
(§2) NIH Molecular Libraries Screening Centers Network [MLSCN]
(§3) National Institutes of Environmental Health Sciences [NIEHS]
(§4) National Toxicology Program [NTP]
We have developed a 1536-well cell-based assay for quantitative high throughput screening (qHTS) against a number of cell lines to determine in vitro caspase 3/7 of small molecules. This particular assay uses the Hek 293 cell line which is derived from human embryonic kidney cells.
(§5) NCGC Assay Protocol Summary:
(§6) The Caspase-Glo 3/7 assay (Promega) is a homogeneous method to measure caspase-3 and caspase-7 activities in cultured cells. The quantitation of caspase 3/7 activity is based on the cleavage of a peptide-aminoluciferin substrate. After caspase cleaves the substrate the free aminoluciferin is liberated and serves as the substrate of luciferase, which generates the light. The luminescent signal is proportional to amount of caspase 3/7 activity present.
(§7) Using the Caspase-Glo 3/7 assay, the amount of caspase 3/7 activity was measured in the Hek 293 cell line with complete culture medium following compound treatment for 16 hours. The assay was performed in opaque white 1536-well plates. In the screen, tamoxifen and doxorubicin were used as positive controls. Library compounds were measured for their ability to cause the activation of caspase 3/7 in the cell line, as reflected by an increase in luminescence signal, in a concentration-dependent manner. Data were normalized to the controls for basal activity (DMSO only) and 100% stimulation (100 uM tamoxifen). AC50 values were determined from concentration-response data modeled with the standard Hill equation.
qHTS protocol for caspase 3/7 assay in Hek 293 cells
(§8) [Step] [Parameter] [Value] [Description]
(§9) 2. Time; 5 hr; 37 °C incubation
4. Controls; 23 nL; Tamoxifen 0.23 uM to 100 uM & Doxorubicin 7.0 pM to 100 uM
(§10) 5. Time; 16 hr; 37 °C incubation
(§11) 6. Reagent; 5 uL; Caspase-Glo 3/7 reagent
7. Time; 20 min; Room Temperature
(§12) 8. Detection; Luminescence; Viewlux plate reader
Keywords: caspase 3/7, apoptosis, Hek 293 cell line, luminescence, NTPHTS, NTPHTS_NCGC, NIEHS, EPA, DSSTox, MLSMR, MLSCN, NIH Roadmap, qHTS, NCGC
In the case of `O=[N+]([O-])c1cccc([N+](=O)[O-])c1`, the caspase-3 activation is reported as inactive: 2.3%.
In the case of `O=[N+]([O-])[O-].[NH4+]`, the caspase-3 activation is reported as inactive: 0.798%.
With `Cc1ccc([N+](=O)[O-])c([N+](=O)[O-])c1` the caspase-3 activation was inactive: -0.933%.
With `[NH4+].[O-][Cl+3]([O-])([O-])[O-]` the caspase-3 activation was inactive: -1.16%.
For `CCC(C)(OO)OOC(C)(CC)OO` (stereo unspecified), the caspase-3 activation was inactive: -2.34%.
For `CCOP(=O)(CC)OCC`, the caspase-3 activation was inactive: 0.191%.
With `Cc1ccc([N+](=O)[O-])cc1[N+](=O)[O-]` the caspase-3 activation was inactive: 2.69%.
For `Cc1c([N+](=O)[O-])cccc1[N+](=O)[O-]`, the caspase-3 activation was inactive: 0.492%.
For `Cc1cccc([N+](=O)[O-])c1[N+](=O)[O-]`, the caspase-3 activation was inactive: -0.202%.

System: not listed separately
Assay: Cellular Toxicity (caspase-3) N2a (AID 665);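 also: compound exposure lasted 16 h at 37 °C before readout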
Details: N2a cells, luminescence, normalized: DMSO 0%, 10 µM staurosporine 100%; at 92.2 µM (top of the series)
Procedure, shortened: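 Caspase-3/7 activation measured as luminescence from Caspase-Glo reagent (1 h, room temperature) after 16 h compound exposure of mouse N2a cells. AC50 values from Hill-equation concentration-response, scaled between DMSO and 10 uM staurosporine.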
For `O=[N+]([O-])c1cccc([N+](=O)[O-])c1`, the caspase-3 activation was inactive: -1.16%.
For `O=[N+]([O-])[O-].[NH4+]`, the caspase-3 activation was inactive: -2.06%.
With `Cc1ccc([N+](=O)[O-])c([N+](=O)[O-])c1` the caspase-3 activation was inactive: -2.97%.
With `[NH4+].[O-][Cl+3]([O-])([O-])[O-]` the caspase-3 activation was inactive: 1.12%.
With `CCC(C)(OO)OOC(C)(CC)OO` (stereo unspecified) the caspase-3 activation was inactive: -2.57%.
With `CCOP(=O)(CC)OCC` the caspase-3 activation was inactive: 0.797%.
In the case of `Cc1ccc([N+](=O)[O-])cc1[N+](=O)[O-]`, the caspase-3 activation is reported as inactive: -3.21%.
For `Cc1c([N+](=O)[O-])cccc1[N+](=O)[O-]`, the caspase-3 activation was inactive: -1.62%.
In the case of `Cc1cccc([N+](=O)[O-])c1[N+](=O)[O-]`, the caspase-3 activation is reported as inactive: -2.55%.

System: not listed separately
Assay: Cellular Toxicity (caspase-3) NIH 3T3 (AID 666);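 also: caspase signal read after 16 h compound exposure; 0% = DMSO basal and 100% = 100 µM tamoxifen stimulation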
Details: NIH 3T3 caspase-3 activation, apoptosis/toxicity, 0% DMSO, 100% is 100 µM tamoxifen; at 92.2 µM (top of the series)
Procedure, shortened: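 Caspase-Glo 3/7 luminescence reported caspase activation in 1000 NIH 3T3 cells/well after 16 h compound exposure at 37 C. DMSO set basal and 100 uM tamoxifen set 100% stimulation; concentration-response modeled with the Hill equation for AC50.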
With `O=[N+]([O-])c1cccc([N+](=O)[O-])c1` the caspase-3 activation was inactive: -3.15%.
In the case of `O=[N+]([O-])[O-].[NH4+]`, the caspase-3 activation is reported as inactive: -0.909%.
In the case of `Cc1ccc([N+](=O)[O-])c([N+](=O)[O-])c1`, the caspase-3 activation is reported as inactive: 27.8%.
For `[NH4+].[O-][Cl+3]([O-])([O-])[O-]`, the caspase-3 activation was inactive: 0.204%.
With `CCC(C)(OO)OOC(C)(CC)OO` (stereo unspecified) the caspase-3 activation was inactive: -0.493%.
In the case of `CCOP(=O)(CC)OCC`, the caspase-3 activation is reported as inactive: -2.57%.
For `Cc1ccc([N+](=O)[O-])cc1[N+](=O)[O-]`, the caspase-3 activation was inactive: -1.55%.
With `Cc1c([N+](=O)[O-])cccc1[N+](=O)[O-]` the caspase-3 activation was inactive: -8.11%.

System: not listed separately
Assay: Cellular Toxicity (caspase-3) Renal Proximal Tubule (AID 667);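 also: cells exposed to compound for 16 hours at 37 °C before detection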
Details: renal proximal tubule cells, primary cells freshly taken from rat, solvent-only wells 0%, staurosporine 100%; at 91.7 µM (top of the series)
Source text: as §1, §2, §3, §4
We have developed a 1536-well cell-based assay for quantitative high throughput screening (qHTS) against a number of cell lines to determine in vitro caspase 3/7 activity of small molecules. This particular assay uses the primary kidney proximal tubule cells freshly isolated from rat.
as §5
as §6, with “proportional to the amount of” for “proportional to amount of”
as §7, with “rat kidney proximal tubule cells” for “Hek 293 cell line”, “staurosporine” for “tamoxifen”, “(10” for “(100”, “staurosporine).” for “tamoxifen).”
qHTS protocol for caspase 3/7 assay in rat kidney proximal tubule cells
as §8
1. Reagent; 5 uL; 1000 rat kidney proximal tubule cells/well
as §9
4. Controls; 23 nL; doxorubicin 7 pM to 100 uM & staurosporine 1.4 pM to 20 uM
as §10, §11
7. Time; 1 hr; Room Temperature
as §12
Keywords: caspase 3/7, apoptosis, rat kidney proximal tubule cells, luminescence, NTPHTS, NTPHTS_NCGC, NIEHS, EPA, DSSTox, MLSMR, MLSCN, NIH Roadmap, qHTS, NCGC
In the case of `O=[N+]([O-])c1cccc([N+](=O)[O-])c1`, the caspase-3 activation is reported as inactive: -8.17%.
With `O=[N+]([O-])[O-].[NH4+]` the caspase-3 activation was inactive: 3.15%.
For `Cc1ccc([N+](=O)[O-])c([N+](=O)[O-])c1`, the caspase-3 activation was inactive: -8.24%.
For `[NH4+].[O-][Cl+3]([O-])([O-])[O-]`, the caspase-3 activation was inactive: 5.77%.
In the case of `CCC(C)(OO)OOC(C)(CC)OO` (stereo unspecified), the caspase-3 activation is reported as inactive: 0.274%.
In the case of `CCOP(=O)(CC)OCC`, the caspase-3 activation is reported as inactive: -5.2%.
In the case of `Cc1ccc([N+](=O)[O-])cc1[N+](=O)[O-]`, the caspase-3 activation is reported as inactive: -6.85%.
For `Cc1c([N+](=O)[O-])cccc1[N+](=O)[O-]`, the caspase-3 activation was inactive: -7.72%.
For `Cc1cccc([N+](=O)[O-])c1[N+](=O)[O-]`, the caspase-3 activation was inactive: -4.2%.

Biological target: Cytochrome P450 3A4 (Homo sapiens) (UniProt P08684)
Assay: qHTS Assay for Inhibitors and Substrates of Cytochrome P450 3A4 (AID 884); also: % is scaled to controls: 0 for no effect and ±100 for the full control effect; nearly all actives have a fitted effect of over 50% in size
Details: recombinant CYP3A4, Luciferin-PPXE luminescence; at 57.1 µM (top of the series)
With `O=[N+]([O-])c1cccc([N+](=O)[O-])c1` the activity change, negative = inhibition was inactive: -20.4%.
In the case of `O=[N+]([O-])[O-].[NH4+]`, the activity change, negative = inhibition is reported as inactive: -6.93%.
In the case of `[NH4+].[O-][Cl+3]([O-])([O-])[O-]`, the activity change, negative = inhibition is reported as inactive: -15.1%.
With `CCC(C)(OO)OOC(C)(CC)OO` (stereo unspecified) the activity change, negative = inhibition was inactive: -27.5%.
In the case of `CCOP(=O)(CC)OCC`, the activity change, negative = inhibition is reported as inactive: -13.6%.
With `Cc1ccc([N+](=O)[O-])cc1[N+](=O)[O-]` the activity change, negative = inhibition was inactive: -22.6%.
For `Cc1c([N+](=O)[O-])cccc1[N+](=O)[O-]`, the activity change, negative = inhibition was inactive: 8.77%.
With `CCN(CCCl)Cc1ccccc1C` the activity change, negative = inhibition was inactive: -20%.
With `OCCSCCO` the activity change, negative = inhibition was inactive: -1.48%.
In the case of `Cc1cccc([N+](=O)[O-])c1[N+](=O)[O-]`, the activity change, negative = inhibition is reported as inactive: -3.15%.

System: not listed separately
Assay: qHTS Assay for Identification of Small Molecule Agonists for Hypoxia Response Element Signaling Pathway (AID 914; active = well fitted activation curve with a large enough effect in the signal ratio, with a control signal flat, not every such curve was filed as active; the % refers to the signal ratio; also: % of control where 0% means no effect)
Details: ME-180 (cervical carcinoma) HRE-bla reporter, beta-lactamase ratio, CoCl2, 17 h; hits give high values
With `N#[O+].[C-]#N.[C-]#N.[C-]#N.[C-]#N.[C-]#N.[Fe+2].[Na+].[Na+]` the activation was inactive: 17.2%.
For `C/C1=C2N=C(/C=C3N=C(/C(C)=C4\[N-][C@@](C)([C@H]5N=C1[C@@](C)(CCC(=O)NC[C@H](C)OP(=O)([O-])O[C@@H]1[C@H](O)[C@H](n6cnc7cc(C)c(C)cc76)O[C@@H]1CO)[C@@H]5CC(N)=O)[C@](C)(CC(N)=O)[C@H]4CCC(N)=O)[C@@](C)(CC(N)=O)[C@@H]\3CCC(N)=O)C(C)(C)[C@@H]/2CCC(N)=O.[C-]#N.[Co+3]`, the activation was inactive: 13.3%.
For `N1=C(c2nnc(-c3nn[nH]n3)nn2)NNN1`, the activation was inactive: -7.84%.

System: not listed separately
Assay: Cell Viability - LYMP2-001 (AID 921);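 also: 0% = DMSO only and full inhibition = tetraoctylammonium bromide control wells; nearly all actives have a fitted effect of over 70% in size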
Details: LYMP2-001 lymphoblastoid cell viability; at 92.2 µM (top of the series)
Procedure, shortened: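 Cellular ATP loss read by luciferase luminescence after 24 h compound exposure at 37 C in complete medium. LYMP2-001 lymphoblastoid cells, 2500/well; qHTS concentration-response data fitted with Hill equation for AC50.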
For `O=[N+]([O-])c1cccc([N+](=O)[O-])c1`, the activity change, negative = cytotoxic was inactive: -0.32%.
For `O=[N+]([O-])[O-].[NH4+]`, the activity change, negative = cytotoxic was inactive: -13.3%.
In the case of `[NH4+].[O-][Cl+3]([O-])([O-])[O-]`, the activity change, negative = cytotoxic is reported as inactive: -19.4%.
In the case of `CCC(C)(OO)OOC(C)(CC)OO` (stereo unspecified), the activity change, negative = cytotoxic is reported as inactive: -51.1%.
For `CCOP(=O)(CC)OCC`, the activity change, negative = cytotoxic was inactive: -3.86%.
For `Cc1ccc([N+](=O)[O-])cc1[N+](=O)[O-]`, the activity change, negative = cytotoxic was inactive: -8.64%.
With `Cc1c([N+](=O)[O-])cccc1[N+](=O)[O-]` the activity change, negative = cytotoxic was inactive: -0.528%.
For `Cc1cccc([N+](=O)[O-])c1[N+](=O)[O-]`, the activity change, negative = cytotoxic was inactive: -15.5%.

Source: PubChem BioAssay (NCATS)
